Tests used:
Assay in all cases: Net tumor volume in tumor xenografts
Assay type in all cases: in vivo, female athymic mice
[1] = system: CaKi-1 renal tumor xenografts; settings: Aplidine 50 μg/kg i.p., Avastin 5.0 mg/kg i.p., IL-2 2 μg/mouse i.p., INF-α 200,000 U/mouse s.c.
Text: (§1) The purpose of this study was to evaluate the antitumor activity of Aplidine when administered with an antitumoral standard agent, both administered using multiple dosing schedule in several types of tumor xenografts in female athymic mice.
(§2) Athymic nude female mice were received from Harlan Sprague Dawley, Madison, Wis. at 4-5 weeks of age. Mice were acclimated to the laboratory for at least one week prior to implantation of tumor. Animals were housed in static cages with food and water allowed ad libitum. Experimental animals were implanted with either tumor fragments derived from transplantation established human tumors or with cells obtain directly from in vitro culture. Tumors were implanted subcutaneously on the right flank on Day 0.
(§3) Tumor size measurements were recorded twice weekly beginning on day 4 or 5 using vernier calipers. The formula to calculate volume for a prolate ellipsoid was used to estimate tumor volume from 2-dimensional tumor measurements: tumor volume (mm^3)=(length×width^2)÷2. Assuming unit density, volume was converted to weight (i.e., 1 mm^3=1 mg). When tumors reached an approximate volume range of 100±15 mg, mice were randomized into treatment and control groups. Treatments were initiated and administered on an individual body weight basis. A dose range finding study was performed on each tumor model to determine the appropriate dose level of each compound used in the combination studies.
(§4) Table 9 and FIGS. 74, 75 and 76 show kinetics of net tumor volume after initiation of treatment with aplidine (APL) as single agent or in combination with Bevacizumab (Avastin®), Interleukin-2 (IL-2) and Interferon-α 2a (INF-α) in CaKi-1 renal tumor xenografts. Aplidine was administered every day for 9 consecutive days by i.p injection, saline control (sterile saline) every day for 9 consecutive days by i.p injection, Bevacizumab (Avastin®) every 3 days for a total of 4 treatments by i.p. injection, IL-2 every day during 5 weekdays (Monday-Friday) for 3 weeks by i.p. injection and INF-α every day during 5 weekdays (Monday-Friday) for 3 weeks by s.c. injection.

[2] = system: MRI-H121 renal tumor xenografts; settings: Aplidine 25 μg/kg i.p., Avastin 2.5 mg/kg i.p., IL-2 1 μg/mouse i.p., INF-α 200,000 U/mouse s.c.
Text: as §1, §2, §3
as §4, with “Table 10” for “Table 9”, “FIGS. 77, 78” for “FIGS. 74, 75”, “and 79” for “and 76”, “in MRI-H121” for “in CaKi-1”

[3] = system: MRI-H187 melanoma tumor xenografts; settings: Aplidine 50 μg/kg i.p., IL-2 2 μg/mouse i.p., INF-α 200,000 U/mouse s.c.
Text: as §2
as §3, with “When tumors reached an approximate volume range of 100±15 mg, mice were randomized into treatment and control groups.” left out

[4] = system: LOX-IMVI melanoma tumor xenografts; settings: IL-2 2 μg/mouse i.p., INF-α 200,000 U/mouse s.c.
Text: as §2
as §3, with “When tumors reached an approximate volume range of 100±15 mg, mice were randomized into treatment and control groups.” left out

Substance: INF-α: Interferon-α 2a (INF-α), standard of care agent
- Net Tumor Volume ± S.E.M. ([1]; CaKi-1, DAY 13): 105 ± 3 mg
- Net Tumor Volume ± S.E.M. ([1]; CaKi-1, DAY 15): 162 ± 14 mg
- Net Tumor Volume ± S.E.M. ([1]; CaKi-1, DAY 19): 239 ± 28 mg
- Net Tumor Volume ± S.E.M. ([1]; CaKi-1, DAY 22): 312 ± 43 mg
- Net Tumor Volume ± S.E.M. ([1]; CaKi-1, DAY 26): 496 ± 60 mg
- Net Tumor Volume ± S.E.M. ([1]; CaKi-1, DAY 29): 613 ± 92 mg
- Net Tumor Volume ± S.E.M. ([1]; CaKi-1, DAY 33): 734 ± 99 mg
- Net Tumor Volume ± S.E.M. ([1]; CaKi-1, DAY 36): 867 ± 86 mg
- Net Tumor Volume ± S.E.M. ([1]; CaKi-1, DAY 41): 1125 ± 111 mg
- Net Tumor Volume ± S.E.M. ([1]; CaKi-1, DAY 47): 1473 ± 149 mg
- Net Tumor Volume ± S.E.M. ([1]; CaKi-1, DAY 50): 1777 ± 197 mg
- Net Tumor Volume ± S.E.M. ([2]; MRI-H121, DAY 11): 110 ± 6 mg
- Net Tumor Volume ± S.E.M. ([2]; MRI-H121, DAY 14): 166 ± 15 mg
- Net Tumor Volume ± S.E.M. ([2]; MRI-H121, DAY 18): 331 ± 32 mg
- Net Tumor Volume ± S.E.M. ([2]; MRI-H121, DAY 19): 341 ± 32 mg
- Net Tumor Volume ± S.E.M. ([2]; MRI-H121, DAY 21): 371 ± 37 mg
- Net Tumor Volume ± S.E.M. ([2]; MRI-H121, DAY 26): 591 ± 69 mg
- Net Tumor Volume ± S.E.M. ([2]; MRI-H121, DAY 29): 704 ± 91 mg
- Net Tumor Volume ± S.E.M. ([2]; MRI-H121, DAY 32): 809 ± 96 mg
- Net Tumor Volume ± S.E.M. ([2]; MRI-H121, DAY 35): 898 ± 108 mg
- Net Tumor Volume ± S.E.M. ([2]; MRI-H121, DAY 39): 1457 ± 165 mg
- Net Tumor Volume ± S.E.M. ([2]; MRI-H121, DAY 42): 1747 ± 210 mg
- Net Tumor Volume ± S.E.M. ([3]; MRI-H187, DAY 21): 115 ± 5 mg
- Net Tumor Volume ± S.E.M. ([3]; MRI-H187, DAY 23): 169 ± 19 mg
- Net Tumor Volume ± S.E.M. ([3]; MRI-H187, DAY 27): 272 ± 40 mg
- Net Tumor Volume ± S.E.M. ([3]; MRI-H187, DAY 30): 398 ± 54 mg
- Net Tumor Volume ± S.E.M. ([3]; MRI-H187, DAY 34): 653 ± 99 mg
- Net Tumor Volume ± S.E.M. ([3]; MRI-H187, DAY 37): 776 ± 115 mg
- Net Tumor Volume ± S.E.M. ([3]; MRI-H187, DAY 40): 912 ± 149 mg
- Net Tumor Volume ± S.E.M. ([3]; MRI-H187, DAY 42): 1104 ± 202 mg
- Net Tumor Volume ± S.E.M. ([3]; MRI-H187, DAY 48): 1521 ± 311 mg
- Net Tumor Volume ± S.E.M. ([3]; MRI-H187, DAY 51): 1978 ± 450 mg
- Net Tumor Volume ± S.E.M. ([4]; DAY 6, Aplidine 50 μg/kg i.p.): 110 ± 4 mg
- Net Tumor Volume ± S.E.M. ([4]; DAY 9, Aplidine 50 μg/kg i.p.): 329 ± 39 mg
- Net Tumor Volume ± S.E.M. ([4]; DAY 13, Aplidine 50 μg/kg i.p.): 1452 ± 252 mg
- Net Tumor Volume ± S.E.M. ([4]; DAY 16, Aplidine 50 μg/kg i.p.): 2188 ± 465 mg

Substance: IL-2: Interleukin-2 (IL-2), standard of care agent
- Net Tumor Volume ± S.E.M. ([1]; CaKi-1, DAY 13): 103 ± 3 mg
- Net Tumor Volume ± S.E.M. ([1]; CaKi-1, DAY 15): 143 ± 15 mg
- Net Tumor Volume ± S.E.M. ([1]; CaKi-1, DAY 19): 224 ± 21 mg
- Net Tumor Volume ± S.E.M. ([1]; CaKi-1, DAY 22): 324 ± 25 mg
- Net Tumor Volume ± S.E.M. ([1]; CaKi-1, DAY 26): 484 ± 49 mg
- Net Tumor Volume ± S.E.M. ([1]; CaKi-1, DAY 29): 623 ± 59 mg
- Net Tumor Volume ± S.E.M. ([1]; CaKi-1, DAY 33): 746 ± 77 mg
- Net Tumor Volume ± S.E.M. ([1]; CaKi-1, DAY 36): 956 ± 102 mg
- Net Tumor Volume ± S.E.M. ([1]; CaKi-1, DAY 41): 1206 ± 116 mg
- Net Tumor Volume ± S.E.M. ([1]; CaKi-1, DAY 47): 1684 ± 120 mg
- Net Tumor Volume ± S.E.M. ([1]; CaKi-1, DAY 50): 2403 ± 218 mg
- Net Tumor Volume ± S.E.M. ([2]; MRI-H121, DAY 11): 108 ± 5 mg
- Net Tumor Volume ± S.E.M. ([2]; MRI-H121, DAY 14): 201 ± 29 mg
- Net Tumor Volume ± S.E.M. ([2]; MRI-H121, DAY 18): 402 ± 60 mg
- Net Tumor Volume ± S.E.M. ([2]; MRI-H121, DAY 19): 366 ± 56 mg
- Net Tumor Volume ± S.E.M. ([2]; MRI-H121, DAY 21): 475 ± 87 mg
- Net Tumor Volume ± S.E.M. ([2]; MRI-H121, DAY 26): 737 ± 121 mg
- Net Tumor Volume ± S.E.M. ([2]; MRI-H121, DAY 29): 922 ± 163 mg
- Net Tumor Volume ± S.E.M. ([2]; MRI-H121, DAY 32): 1138 ± 205 mg
- Net Tumor Volume ± S.E.M. ([2]; MRI-H121, DAY 35): 1175 ± 192 mg
- Net Tumor Volume ± S.E.M. ([2]; MRI-H121, DAY 39): 1615 ± 273 mg
- Net Tumor Volume ± S.E.M. ([2]; MRI-H121, DAY 42): 1873 ± 310 mg
- Net Tumor Volume ± S.E.M. ([3]; MRI-H187, DAY 21): 113 ± 4 mg
- Net Tumor Volume ± S.E.M. ([3]; MRI-H187, DAY 23): 171 ± 24 mg
- Net Tumor Volume ± S.E.M. ([3]; MRI-H187, DAY 27): 314 ± 46 mg
- Net Tumor Volume ± S.E.M. ([3]; MRI-H187, DAY 30): 420 ± 68 mg
- Net Tumor Volume ± S.E.M. ([3]; MRI-H187, DAY 34): 647 ± 88 mg
- Net Tumor Volume ± S.E.M. ([3]; MRI-H187, DAY 37): 843 ± 90 mg
- Net Tumor Volume ± S.E.M. ([3]; MRI-H187, DAY 40): 1072 ± 136 mg
- Net Tumor Volume ± S.E.M. ([3]; MRI-H187, DAY 42): 1215 ± 158 mg
- Net Tumor Volume ± S.E.M. ([3]; MRI-H187, DAY 48): 1672 ± 166 mg
- Net Tumor Volume ± S.E.M. ([3]; MRI-H187, DAY 51): 2005 ± 202 mg
- Net Tumor Volume ± S.E.M. ([4]; DAY 6, Aplidine 50 μg/kg i.p.): 111 ± 5 mg
- Net Tumor Volume ± S.E.M. ([4]; DAY 9, Aplidine 50 μg/kg i.p.): 357 ± 51 mg
- Net Tumor Volume ± S.E.M. ([4]; DAY 13, Aplidine 50 μg/kg i.p.): 1541 ± 247 mg
- Net Tumor Volume ± S.E.M. ([4]; DAY 16, Aplidine 50 μg/kg i.p.): 3315 ± 614 mg
